Data on three molecules can be found in ChEMBL document CHEMBL1944599, “From libraries to candidate: the discovery of new ultra long-acting dibasic β₂-adrenoceptor agonists” (Bioorg Med Chem Lett, 2012).

Protein sequences, listed by entry. Tags and fused reporters are not part of them.
UniProt P07550, whole entry: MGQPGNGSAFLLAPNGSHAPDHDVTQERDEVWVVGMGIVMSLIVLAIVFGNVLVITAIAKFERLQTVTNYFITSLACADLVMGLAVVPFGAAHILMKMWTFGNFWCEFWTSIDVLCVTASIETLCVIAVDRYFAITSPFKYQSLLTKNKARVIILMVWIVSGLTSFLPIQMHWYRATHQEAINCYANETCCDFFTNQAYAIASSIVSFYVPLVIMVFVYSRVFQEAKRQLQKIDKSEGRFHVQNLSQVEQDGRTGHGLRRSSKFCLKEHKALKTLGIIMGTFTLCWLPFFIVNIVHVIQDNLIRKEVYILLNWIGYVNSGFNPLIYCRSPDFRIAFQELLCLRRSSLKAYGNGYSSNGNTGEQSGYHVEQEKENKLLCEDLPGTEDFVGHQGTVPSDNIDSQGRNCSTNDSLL
UniProt P08588, whole entry: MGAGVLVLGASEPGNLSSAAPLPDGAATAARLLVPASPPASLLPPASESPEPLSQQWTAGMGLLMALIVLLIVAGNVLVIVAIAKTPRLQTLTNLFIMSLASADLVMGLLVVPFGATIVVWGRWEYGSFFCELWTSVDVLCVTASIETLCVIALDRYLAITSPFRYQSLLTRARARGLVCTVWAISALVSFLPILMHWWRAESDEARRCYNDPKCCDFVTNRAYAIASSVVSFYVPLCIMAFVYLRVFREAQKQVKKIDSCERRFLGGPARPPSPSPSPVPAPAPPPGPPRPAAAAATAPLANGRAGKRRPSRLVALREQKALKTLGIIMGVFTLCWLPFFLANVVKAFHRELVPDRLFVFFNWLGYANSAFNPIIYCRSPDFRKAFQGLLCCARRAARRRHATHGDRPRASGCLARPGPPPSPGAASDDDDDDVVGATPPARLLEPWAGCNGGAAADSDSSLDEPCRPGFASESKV

Experiment [1] addresses Beta-2 adrenergic receptor (Homo sapiens, UniProt P07550). In words: Displacement of radiolabeled iodocyanopindolol from recombinant beta2 adrenoceptor.
The target in experiment [2] is Beta-1 adrenergic receptor (Homo sapiens, UniProt P08588). The experiment can be described thus: Binding affinity to beta1 adrenoceptor expressed in CHO cells by cAMP accumulation assay. The class given is functional, cell-based. On the technique in general: cAMP levels reflect the balance of adenylyl cyclase and phosphodiesterase activity.
The species entered for the next experiment is Cavia porcellus. The experiment can be described thus: animal or person.

A word on the IC50: it is the concentration needed to halve the response being measured. As usually defined, the EC50 is the concentration giving half of the maximal effect. Low values mean greater potency, high ones weaker potency. As for `COc1ccccc1CNCc1cccc(CCNC[C@H](O)c2ccc(O)c3[nH]c(=O)sc23)c1`, in experiment [1], the IC50 was 6.31 nM. In addition, the response in experiment [2] was half-maximal at 63.1 nM (EC50).

For `O=c1[nH]c2c(O)ccc([C@@H](O)CNCCc3cccc(CNCc4ccccc4Cl)c3)c2s1`, the IC50 in experiment [1] was 2 nM.

As to `COc1ccc(CC(C)NCC(O)c2ccc(O)c(NC=O)c2)cc1` (centres undefined) [FORMOTEROL], in the experiment listed under Cavia porcellus, the ED80 was determined as 1 µg/kg.
